Results as given in paper PMC9837035 (Nature Communications, 2023).
“And” between values parts separate entries of the source, which are not always exact repeats. Identical values can stand only once.

Legend:
[1] = Caco-2 permeability assay; format: in vitro ADME; settings: human, read-out: Efflux ratio (B to A/A to B)
[2] = test system: β- and γ-globin genes in HUDEP-2 cells; assay: RT-qPCR of β- and γ-globin in HUDEP-2 cells; format: cell-based, human; settings: HUDEP-2, 4 days
Method: (§1) Total cellular RNA was prepared using the Tissue Total RNA Mini Kit (FAVORGEN), and cDNA was synthesized using ReverTra Ace Master Mix (TOYOBO). Expression of target genes was analyzed using THUNDERBIRD SYBR qPCR Mix (TOYOBO) on a CFX Connect Real Time System (Bio-Rad). The qPCR data were acquired on CFX Maestro (Bio-Rad). Primers are listed in Supplementary Table 10. GAPDH was used as a reference. Primers were purchased from INTEGRATED DNA TECHNOLOGIES or FASMAC.

BGLT3 RNA in CD34+ cells = assay: RT-qPCR of BGLT3 in CD34+ cells; format: cell-based, human
Method: HUDEP-2 cells and HiDEP-1 cells were grown in Stemline II Hematopoietic Stem Cell Expansion Medium (Sigma) supplemented with 50 ng/mL recombinant stem cell factor (SCF; R&D systems), 3 IU/mL recombinant erythropoietin (EPO; Kyowa Kirin), 1 μM dexamethasone (Dex; Sigma), and 1 μg/mL doxycycline (Sigma). A total of 1 × 10^5 human CD34^+ progenitor cells derived from bone marrow or peripheral blood (Lonza) were cultured on 35-mm dishes (BD Falcon) in StemSpan SFEMII medium with 50 ng/mL SCF, 5 IU/mL EPO, and 10 ng /mL interleukin 3 (IL-3; R&D systems). The medium was changed on day 4 to SCF, EPO, and 1 μM Dex, and the cells were transferred to 60-mm dishes (BD Falcon). Seven days after the onset of differentiation, cells were counted and 1 × 10^6 cells were re-plated on 100-mm dishes (BD Falcon) with SCF, EPO, and Dex. The rat myoblast cell line H9c2, HEK293T, and PLAT-E cells were maintained in Dulbecco’s modified Eagle’s medium (Thermo Fisher Scientific) supplemented with 10% heat-inactivated fetal bovine serum (FBS) and penicillin/streptomycin. All cells were cultured at 37 °C under 5% CO2.
as §1

NSD2 = target: T1, NSD2 (Homo sapiens, UniProt O96028); assay: Radioisotope-based methyltransferase assay (selectivity); settings: IC50, NSD2, 1 μM SAM
T1 sequence (O96028 1-1365): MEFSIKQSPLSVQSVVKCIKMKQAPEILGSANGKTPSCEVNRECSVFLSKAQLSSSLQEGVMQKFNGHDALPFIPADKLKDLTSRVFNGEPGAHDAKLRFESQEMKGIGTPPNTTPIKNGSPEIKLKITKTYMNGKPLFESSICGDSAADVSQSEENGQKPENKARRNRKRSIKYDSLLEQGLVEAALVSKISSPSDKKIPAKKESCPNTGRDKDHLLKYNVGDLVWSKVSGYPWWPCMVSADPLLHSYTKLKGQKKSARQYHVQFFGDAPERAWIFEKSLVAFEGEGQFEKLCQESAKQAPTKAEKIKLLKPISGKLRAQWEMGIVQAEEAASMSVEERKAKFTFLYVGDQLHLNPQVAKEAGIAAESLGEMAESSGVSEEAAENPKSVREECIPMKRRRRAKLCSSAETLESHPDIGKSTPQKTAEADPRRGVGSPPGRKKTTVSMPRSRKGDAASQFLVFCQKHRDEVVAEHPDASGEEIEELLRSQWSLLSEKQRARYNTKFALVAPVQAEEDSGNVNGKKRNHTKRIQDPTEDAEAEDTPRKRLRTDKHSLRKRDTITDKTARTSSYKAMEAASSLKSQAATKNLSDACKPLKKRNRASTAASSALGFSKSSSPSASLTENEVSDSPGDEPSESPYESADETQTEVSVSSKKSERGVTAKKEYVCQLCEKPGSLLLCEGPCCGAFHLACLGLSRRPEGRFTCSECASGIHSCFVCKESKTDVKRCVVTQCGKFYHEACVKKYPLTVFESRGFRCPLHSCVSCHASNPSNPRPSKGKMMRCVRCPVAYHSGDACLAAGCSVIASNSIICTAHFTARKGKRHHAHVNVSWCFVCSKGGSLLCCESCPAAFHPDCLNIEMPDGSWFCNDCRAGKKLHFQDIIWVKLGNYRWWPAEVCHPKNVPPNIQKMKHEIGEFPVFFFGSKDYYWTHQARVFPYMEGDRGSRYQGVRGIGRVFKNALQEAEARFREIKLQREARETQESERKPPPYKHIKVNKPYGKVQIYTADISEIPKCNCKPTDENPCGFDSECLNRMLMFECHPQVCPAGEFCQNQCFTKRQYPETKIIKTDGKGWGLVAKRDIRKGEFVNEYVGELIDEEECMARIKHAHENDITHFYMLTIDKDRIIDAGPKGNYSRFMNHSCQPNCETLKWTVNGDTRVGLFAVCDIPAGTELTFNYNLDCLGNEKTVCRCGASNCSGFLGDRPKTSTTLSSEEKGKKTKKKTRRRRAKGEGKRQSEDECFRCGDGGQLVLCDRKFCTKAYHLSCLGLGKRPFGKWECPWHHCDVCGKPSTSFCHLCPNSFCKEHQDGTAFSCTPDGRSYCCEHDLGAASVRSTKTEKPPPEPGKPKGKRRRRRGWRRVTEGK

For `Cc1c(C(=O)NC(CCC2CC2)C(=O)Nc2ccc(C#N)cc2)[nH]c2c1C(=O)CC(C)(C)C2` (stereo not shown) [RK-701], the efflux ratio [1] was 3.6, the “Relative expression of β-globin” value ([2]; 0.03 μM, relative to DMSO) was 1.119 and 1.1336 and 1.003 and the “Relative expression of γ-globin” value ([2]; 0.03 μM, relative to DMSO) was 2.2316 and 2.688 and 1.988. The “Relative expression of β-globin” value ([2]; 0.1 μM) was 1.111 and 1.056 and 1.092, the “Relative expression of γ-globin” value ([2]; 0.1 μM) was 2.76 and 3.079 and 2.8861 and the “Relative expression of β-globin” value ([2]; 0.3 μM) was 1.06 and 0.9638 and 0.8535. The “Relative expression of γ-globin” value ([2]; 0.3 μM) was 2.674 and 2.856 and 2.147, the “Relative expression of β-globin” value ([2]; 1 μM) was 1.094 and 1.022 and 0.957 and the “Relative expression of γ-globin” value ([2]; 1 μM) was 2.438 and 2.463 and 2.5. For the same compound, the “Relative expression of β-globin” value ([2]; 3 μM) was 1.043 and 0.9818 and 0.8971, the “Relative expression of γ-globin” value ([2]; 3 μM) was 2.427 and 2.061 and 2.035 and the “Relative expression of BGLT3 RNA” value (BGLT3 RNA in CD34+ cells; DAY7, 0.01 μM) was 1.618 and 1.382 and 1.119. For the same compound, the “Relative expression of BGLT3 RNA” value (BGLT3 RNA in CD34+ cells; DAY7, 0.03 μM) was 2.257 and 2.338 and 2.351, the “Relative expression of BGLT3 RNA” value (BGLT3 RNA in CD34+ cells; DAY7, 0.1 μM) was 5.71 and 5.323 and 4.605 and the “Relative expression of BGLT3 RNA” value (BGLT3 RNA in CD34+ cells; DAY7, 0.3 μM) was 6.283 and 5.769 and 4.1359. The “Relative expression of BGLT3 RNA” value (BGLT3 RNA in CD34+ cells; DAY9, 0.01 μM) was 1.433 and 1.1061 and 1.745, the “Relative expression of BGLT3 RNA” value (BGLT3 RNA in CD34+ cells; DAY9, 0.03 μM) was 2.487 and 2.42 and 2.611 and the “Relative expression of BGLT3 RNA” value (BGLT3 RNA in CD34+ cells; DAY9, 0.1 μM) was 6.227 and 4.599 and 5.146. The “Relative expression of BGLT3 RNA” value (BGLT3 RNA in CD34+ cells; DAY9, 0.3 μM) was 5.198 and 6.337 and 7.76, the “Relative expression of BGLT3 RNA” value (BGLT3 RNA in CD34+ cells; DAY9, 1 μM) was 7.664 and 6.752 and 9.738 and the “Relative expression of BGLT3 RNA” value (BGLT3 RNA in CD34+ cells; DAY9, 3 μM) was 13.8033 and 7.07 and 10.6038.
Compound `Nc1ncnc2c1ncn2[C@@H]1O[C@H](CSCC[C@H](N)C(=O)O)[C@@H](O)[C@H]1O` [SAH, S-(5'-Adenosyl)-L-homocysteine, reference compound] has an IC50 (NSD2) of 3.3 µM.
